Laboratory results from patent US11129835B2, “Methods and compositions for the inhibition of PIN1” (Beth Israel Deaconess Medical Center, Inc., priority 2012, dated 2021).

The chains behind the UniProt entries cited, without tags or fusion partners.
UniProt Q13526, whole entry: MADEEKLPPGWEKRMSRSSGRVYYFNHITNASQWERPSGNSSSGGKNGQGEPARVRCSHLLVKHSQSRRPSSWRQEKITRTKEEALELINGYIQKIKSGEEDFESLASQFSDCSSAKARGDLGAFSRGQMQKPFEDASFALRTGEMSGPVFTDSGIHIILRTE

How the values were obtained:
[1] = molecular target: T1, Pin1 (Homo sapiens, UniProt Q13526); assay: confirmatory Pin1 fluorescence polarization competition assay (Alexa488 reconfirmed);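 note: Pin1 competition with a HiFluor488-labelled peptide probe, read as fluorescence polarization after 10 min at room temperature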
[2] = molecular target: T1, Pin1; assay: Pin1 fluorescence polarization competition assay with Tamra-probe (secondary)
[3] = molecular target: T1, Pin1; assay: Pin1 fluorescence polarization competition assay, primary qHTS (HiFluor-488 / Alexa488 probe);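 note: Pin1 protein with fluorescent peptide probe, compound displacement read by fluorescence polarization, percent inhibition derived from corrected polarization values, concentration-response curves in 1536-well format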

O=C(O)c1cccc2c1NC(C(=O)O)C1CC(Sc3ccccc3[N+](=O)[O-])C(Cl)C21 (stereo not shown) [Compound 3]
IC50 [1]: 3 µM
IC50 [2]: 5 µM
IC50 ([3]; Alexa488 Primary Potency, primary qHTS): 10 µM
IC50 ([3]; Average HTS Potency, average over Alexa488 primary, Alexa488 reconfirmed and Tamra secondary assays): 6 µM
